Data from ChEMBL document CHEMBL4813924, “Isolation and Pharmacological Characterization of Six Opioidergic Picralima nitida Alkaloids” (J Nat Prod, 2021).
Activity calls are given as the source filed them. The rule behind the calls is not given here.

Protein sequences, listed by entry. Tags and fused reporters are not part of them. Lines headed by an entry give the natural chain unless they say otherwise; changes in a name come on top.
UniProt P41143, whole entry, looked up: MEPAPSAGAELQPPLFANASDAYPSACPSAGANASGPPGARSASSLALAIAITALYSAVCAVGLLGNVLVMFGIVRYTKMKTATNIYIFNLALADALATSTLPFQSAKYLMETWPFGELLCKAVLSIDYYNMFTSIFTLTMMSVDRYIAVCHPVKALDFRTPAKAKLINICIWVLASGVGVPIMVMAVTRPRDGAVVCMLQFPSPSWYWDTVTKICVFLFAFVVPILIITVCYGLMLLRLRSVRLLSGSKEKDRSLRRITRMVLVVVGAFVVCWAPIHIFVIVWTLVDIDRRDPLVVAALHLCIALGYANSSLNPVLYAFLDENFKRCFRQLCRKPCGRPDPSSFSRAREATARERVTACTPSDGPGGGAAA
UniProt P33534: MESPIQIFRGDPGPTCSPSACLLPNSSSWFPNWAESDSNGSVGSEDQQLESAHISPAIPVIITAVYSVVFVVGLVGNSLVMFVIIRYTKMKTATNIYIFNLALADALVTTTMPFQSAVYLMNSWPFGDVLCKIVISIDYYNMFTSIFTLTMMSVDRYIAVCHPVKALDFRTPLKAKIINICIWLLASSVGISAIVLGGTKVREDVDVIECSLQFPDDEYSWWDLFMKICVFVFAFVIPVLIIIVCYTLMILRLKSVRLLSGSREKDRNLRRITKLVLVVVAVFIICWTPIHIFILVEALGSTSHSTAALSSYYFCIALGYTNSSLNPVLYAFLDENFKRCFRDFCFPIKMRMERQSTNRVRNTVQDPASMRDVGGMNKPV
UniProt P32300, whole entry, looked up: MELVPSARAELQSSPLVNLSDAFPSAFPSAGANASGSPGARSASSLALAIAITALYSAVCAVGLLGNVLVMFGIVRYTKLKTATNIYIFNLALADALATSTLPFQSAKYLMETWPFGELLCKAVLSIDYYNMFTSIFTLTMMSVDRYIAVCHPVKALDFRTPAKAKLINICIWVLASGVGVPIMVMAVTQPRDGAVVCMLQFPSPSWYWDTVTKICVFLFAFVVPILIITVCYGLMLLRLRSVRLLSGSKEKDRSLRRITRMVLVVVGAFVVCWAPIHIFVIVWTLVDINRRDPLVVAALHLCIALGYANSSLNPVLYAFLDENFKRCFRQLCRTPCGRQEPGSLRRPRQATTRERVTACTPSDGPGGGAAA

Tests used:
[1] = target: Delta-type opioid receptor (Homo sapiens, UniProt P41143); test: Displacement of [3H]-DADLE from delta opioid receptor (unknown origin) expressed in HEK cells at 10 uM; assay type: cell-based; conditions: filed as agonist
[2] = target: Kappa-type opioid receptor (Mus musculus) (UniProt P33534); test: Agonist activity at mouse FLAG-tagged kappa opioid receptor expressed in HEK293 cells assessed as inhibition of forskolin-induced cAMP production preincubated for 20 mins followed by forskolin stimulation and measured after 15 mins by Glo-sensor reagent based assay relative to U50488; assay type: functional, cell-based; parameters: scale not given: the % may be the effect or the level left; conditions: filed as agonist
Mus musculus [3] = test: Antinociceptive activity against C57Bl/6N mouse model of thermal-induced nociception at 5 mg/kg, sc measured at 30 mins by hot-plate test
Mus musculus [4] = test: Antinociceptive activity against C57Bl/6N mouse model of thermal-induced nociception at 10 mg/kg, sc measured at 30 mins by hot-plate test
Mus musculus [5] = test: Antinociceptive activity against C57Bl/6N mouse model of thermal-induced nociception at 10 mg/kg, sc measured at 30 mins by tail-flick test
Mus musculus [6] = test: Antinociceptive activity against C57Bl/6N mouse model of thermal-induced nociception at 5 mg/kg, po measured up to 120 mins by hot-plate test; conditions: time min <=120
Mus musculus [7] = test: Antinociceptive activity against C57Bl/6N mouse model of thermal-induced nociception at 5 mg/kg, po measured up to 120 mins by tail-flick test; conditions: time min <=120
Mus musculus [8] = test: Antinociceptive activity against C57Bl/6N mouse model of thermal-induced nociception at 5 mg/kg, sc measured after 30 to 60 mins by tail-flick test; conditions: time 30-60 min
Mus musculus [9] = test: Antinociceptive activity against C57Bl/6N mouse model of thermal-induced nociception at 3 mg/kg, sc measured at 110 mins by hot-plate test; assay type: functional, organism-based
[10] = target: Delta-type opioid receptor (Mus musculus) (UniProt P32300); test: Agonist activity at mouse FLAG-tagged delta opioid receptor expressed in HEK293 cells assessed as inhibition of forskolin-induced cAMP production preincubated for 20 mins followed by forskolin stimulation and measured after 15 mins by Glo-sensor reagent based assay relative to Leu-Enk; assay type: functional, cell-based; parameters: scale not given: the % may be the effect or the level left; conditions: filed as agonist
Mus musculus [11] = test: Antinociceptive activity against C57Bl/6N mouse model of thermal-induced nociception at 30 mg/kg, sc measured at 60 mins by hot-plate test
Mus musculus [12] = test: Antinociceptive activity against C57Bl/6N mouse model of thermal-induced nociception at 60 mg/kg, sc measured at 30 mins by hot-plate test
Mus musculus [13] = test: Antinociceptive activity against C57Bl/6N mouse model of thermal-induced nociception at 3 mg/kg, sc measured at 110 mins by tail-flick test
Mus musculus [14] = test: Antinociceptive activity against C57Bl/6N mouse model of thermal-induced nociception at 60 mg/kg, sc measured at 30 mins by tail-flick test

C/C=C1/CN2CC[C@@]34c5ccccc5N(C)[C@]35OC[C@@]4(C(=O)OC)[C@H]1C[C@H]25
inhibition [1]: Active
Activity [2]: 69%
Activity (Mus musculus [3]): Active
Activity (Mus musculus [4]): inactive
Activity (Mus musculus [5]): inactive
Activity (Mus musculus [6]): inactive
Activity (Mus musculus [7]): inactive
Activity (Mus musculus [8]): Active

C/C=C1/CN2CC[C@@]34c5cc(O)ccc5N(C)[C@]35OC[C@@]4(C(=O)OC)[C@H]1C[C@H]25
inhibition [1]: Active
Activity (Mus musculus [9]): Active
Activity [10]: 50%
Activity (Mus musculus [11]): Active
Activity (Mus musculus [12]): Active
Activity (Mus musculus [13]): Active
Activity (Mus musculus [14]): Active
